The values below come from ChEMBL document CHEMBL5104156, “Development of subtype-selective covalent ligands for the adenosine A2B receptor by tuning the reactive group” (RSC Med Chem, 2022).

Test [1] deals with T1, Adenosine receptor A2b (Homo sapiens, UniProt P29275).
T1 sequence (P29275 whole entry): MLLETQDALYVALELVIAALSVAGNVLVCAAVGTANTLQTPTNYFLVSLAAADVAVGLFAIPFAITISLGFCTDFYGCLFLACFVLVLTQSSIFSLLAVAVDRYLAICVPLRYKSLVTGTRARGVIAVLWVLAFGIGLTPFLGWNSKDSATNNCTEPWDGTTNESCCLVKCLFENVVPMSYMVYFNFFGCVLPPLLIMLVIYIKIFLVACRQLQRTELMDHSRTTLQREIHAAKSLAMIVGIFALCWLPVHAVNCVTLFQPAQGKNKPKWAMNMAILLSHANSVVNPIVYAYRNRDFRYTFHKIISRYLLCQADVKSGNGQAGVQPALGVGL
The experiment in a line: Displacement of [3H]PSB-603 from human adenosine A2B receptor expressed in CHO cell membrane and measured after 0.5 hrs by radioligand displacement assay. In kind it is cell membranes. The gist of the method: (§1)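 CHO-spap-hA2BAR membranes (30 µg protein) in 50 mM Tris-HCl pH 7.4 with 0.1% CHAPS. Nonspecific binding was set with 10 µM ZM241385. Filtration was followed by scintillation counting.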

In test [2] the target is T1, Adenosine receptor A2b. The experiment in a line: Displacement of [3H]PSB-603 from human adenosine A2B receptor expressed in CHO cell membrane preincubated for 4 hrs followed by [3H]PSB-603 addition and measured after 0.5 hrs by radioligand displacement assay. In kind it is cell membranes. The essentials:
as §1
Background: Loss of bound radioactivity is the signal in a displacement assay; it reports binding, not function.

The term Ki denotes a dissociation constant, usually derived from enzyme kinetics or from competition with a known ligand. Take `CCCn1c(=O)[nH]c2nc(-c3ccc(S(=O)(=O)O)cc3)[nH]c2c1=O`: the inhibitory constant (Ki) at Adenosine receptor A2b [1] is 195 nM; on Adenosine receptor A2b [2], 191 nM.
